According to BindingDB's records for patent US8952177 (Janssen Pharmaceutica, 2015):

Biological target: T1, Arachidonate 5-lipoxygenase-activating protein (Homo sapiens, UniProt A0A087WW23)
T1 sequence (A0A087WW23 whole entry): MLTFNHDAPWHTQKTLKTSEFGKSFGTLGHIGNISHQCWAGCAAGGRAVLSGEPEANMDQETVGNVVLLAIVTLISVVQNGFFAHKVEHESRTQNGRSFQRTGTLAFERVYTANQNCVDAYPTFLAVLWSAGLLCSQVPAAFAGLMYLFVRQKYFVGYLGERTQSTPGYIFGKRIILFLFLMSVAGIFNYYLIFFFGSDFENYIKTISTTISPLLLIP
Experiment: Homogeneous Time Resolved Fluorescence Assay

- Ki: 100 nM
SMILES: CCC(CC)(Cc1nc2ccc(OCc3ccc(C)cn3)cc2n1Cc1ccc(N2CCC(F)(F)CC2)cc1)C(=O)O [US8952177, 170]
